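Five concentrations, 48 hours, 96-well plates. The concentration for 50% growth inhibition is given as GI50. TGI: concentration producing complete growth inhibition.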
Assays:
Experiment in all cases: NCI-60 cell line screen, 48 h
[1] = tested on: K-562 leukemia
[2] = tested on: EKVX NSCLC
[3] = tested on: HT29 colon
[4] = tested on: SK-MEL-5 melanoma
[5] = tested on: TK-10 renal
[6] = tested on: NCI-H460 lung
[7] = tested on: SN12C renal
[8] = tested on: U251 CNS
[9] = tested on: SK-MEL-2 melanoma
[10] = tested on: DU-145 prostate
[11] = tested on: SK-MEL-28 melanoma
[12] = tested on: MDA-N
[13] = tested on: SK-OV-3 ovarian
[14] = tested on: IGROV1 ovarian
[15] = tested on: UO-31 renal
[16] = tested on: A498 renal
[17] = tested on: OVCAR-4 ovarian
[18] = tested on: 786-0 renal
[19] = tested on: MOLT-4 leukemia
[20] = tested on: LOX IMVI melanoma
[21] = tested on: HOP-92 NSCLC
[22] = tested on: RXF 393 renal
[23] = tested on: OVCAR-5 ovarian
[24] = tested on: HL-60(TB) leukemia
[25] = tested on: ACHN renal
[26] = tested on: A549 NSCLC
[27] = tested on: UACC-257 melanoma
[28] = tested on: PC-3 prostate
[29] = tested on: NCI-H322M lung
[30] = tested on: OVCAR-3 ovarian
[31] = tested on: UACC-62 melanoma
[32] = tested on: CAKI-1 renal
[33] = tested on: NCI-H226 lung
[34] = tested on: COLO 205 colon
[35] = tested on: KM12 colon
[36] = tested on: SF-539 CNS
[37] = tested on: M14 melanoma
[38] = tested on: SR leukemia
[39] = tested on: SNB-19 CNS
[40] = tested on: CCRF-CEM leukemia
[41] = tested on: SW-620 colon
[42] = tested on: MDA-MB-231 breast
[43] = tested on: MCF7 breast
[44] = tested on: OVCAR-8 ovarian
[45] = tested on: HCT-15 colon
[46] = tested on: MDA-MB-435
[47] = tested on: SNB-75 CNS
[48] = tested on: NCI/ADR-RES ovarian
[49] = tested on: HCT-116 colon
[50] = tested on: SF-295 CNS

Compound: O=[N+]([O-])c1nc(Br)n(F)c1[N+](=O)[O-]
- GI50 [1]: > 100 µM
- TGI [1]: > 100 µM
- GI50 [2]: > 100 µM
- TGI [2]: > 100 µM
- GI50 [3]: 84.6 µM
- TGI [3]: > 100 µM
- GI50 [4]: > 100 µM
- TGI [4]: > 100 µM
- GI50 [5]: > 100 µM
- TGI [5]: > 100 µM
- GI50 [6]: > 100 µM
- TGI [6]: > 100 µM
- GI50 [7]: > 100 µM
- TGI [7]: > 100 µM
- GI50 [8]: > 100 µM
- TGI [8]: > 100 µM
- GI50 [9]: > 100 µM
- TGI [9]: > 100 µM
- GI50 [10]: > 100 µM
- TGI [10]: > 100 µM
- GI50 [11]: > 100 µM
- TGI [11]: > 100 µM
- GI50 [12]: > 100 µM
- TGI [12]: > 100 µM
- GI50 [13]: > 100 µM
- TGI [13]: > 100 µM
- GI50 [14]: > 100 µM
- TGI [14]: > 100 µM
- GI50 [15]: 56.7 µM
- TGI [15]: > 100 µM
- GI50 [16]: > 100 µM
- TGI [16]: > 100 µM
- GI50 [17]: 76.4 µM
- TGI [17]: > 100 µM
- GI50 [18]: > 100 µM
- TGI [18]: > 100 µM
- GI50 [19]: > 100 µM
- TGI [19]: > 100 µM
- GI50 [20]: 47.7 µM
- TGI [20]: > 100 µM
- GI50 [21]: 41.6 µM
- TGI [21]: > 100 µM
- GI50 [22]: > 100 µM
- TGI [22]: > 100 µM
- GI50 [23]: > 100 µM
- TGI [23]: > 100 µM
- GI50 [24]: 19.9 µM
- TGI [24]: > 100 µM
- GI50 [25]: 63.2 µM
- TGI [25]: > 100 µM
- GI50 [26]: > 100 µM
- TGI [26]: > 100 µM
- GI50 [27]: > 100 µM
- TGI [27]: > 100 µM
- GI50 [28]: > 100 µM
- TGI [28]: > 100 µM
- GI50 [29]: 49.9 µM
- TGI [29]: > 100 µM
- GI50 [30]: > 100 µM
- TGI [30]: > 100 µM
- GI50 [31]: > 100 µM
- TGI [31]: > 100 µM
- GI50 [32]: 69.7 µM
- TGI [32]: > 100 µM
- GI50 [33]: 47.3 µM
- TGI [33]: > 100 µM
- GI50 [34]: > 100 µM
- TGI [34]: > 100 µM
- GI50 [35]: > 100 µM
- TGI [35]: > 100 µM
- GI50 [36]: 52.5 µM
- TGI [36]: > 100 µM
- GI50 [37]: 90 µM
- TGI [37]: > 100 µM
- GI50 [38]: 81.5 µM
- TGI [38]: > 100 µM
- GI50 [39]: > 100 µM
- TGI [39]: > 100 µM
- GI50 [40]: 67.4 µM
- TGI [40]: > 100 µM
- GI50 [41]: > 100 µM
- TGI [41]: > 100 µM
- GI50 [42]: > 100 µM
- TGI [42]: > 100 µM
- GI50 [43]: > 100 µM
- TGI [43]: > 100 µM
- GI50 [44]: > 100 µM
- TGI [44]: > 100 µM
- GI50 [45]: 36 µM
- TGI [45]: > 100 µM
- GI50 [46]: > 100 µM
- TGI [46]: > 100 µM
- GI50 [47]: > 100 µM
- TGI [47]: > 100 µM
- GI50 [48]: > 100 µM
- TGI [48]: > 100 µM
- GI50 [49]: 77.2 µM
- TGI [49]: > 100 µM
- GI50 [50]: 45.7 µM
- TGI [50]: > 100 µM

Reference: PubChem BioAssay (NCI)
